Results from PubChem BioAssay (NCI).
Where “and” joins values, the source holds several entries; their conditions need not be identical. Equal values may be shown once. This is a selection; strong and weak results do not stand in their true shares. Some structures show a salt or complex split into parts, the way the source records it. Calls of active or inactive are those of the source. Rule as the data show it: active = growth inhibition above about 70%; inactive = the rest.

Assay: NCI Yeast Anticancer Drug Screen. Data for the bub3 strain (AID 167)
Details: S. cerevisiae bub3 mutant strain, at 50.0 µM, active compounds read high

Structure (SMILES)	growth inhibition
CS/C(=C/[S+](C)C)c1ccccc1.O=[N+]([O-])c1cc([N+](=O)[O-])c(S(=O)(=O)[O-])c([N+](=O)[O-])c1	inactive: 19.5%
CC(C)OP(C)(=O)O.[Tl]	inactive: -5.85%
COc1ccc([N+](=O)[O-])cc1[N+](=O)[O-]	inactive: -3.65%
N/C(=N\[N+](=O)[O-])N(N)CCN(N)/C(N)=N/[N+](=O)[O-]	inactive: 11.7%
NN/C(N)=N/[N+](=O)[O-]	inactive: -16.6%
CCCCCCCCCCOP(=O)(Cl)CC (stereo not given)	inactive: 3.9%
NCCO.O=[N+]([O-])c1cc([N+](=O)[O-])c(O)c([N+](=O)[O-])c1	inactive: 11.9%
COc1ccc2c3c1O[C@H]1C4(OC)CCC5(CC4C(C)(C)O)[C@@H](C2)N(C)CC[C@]315 (stereo not given in full)	inactive: -2.7%
CCOP(C)(=S)Oc1ccc([N+](=O)[O-])cc1 (stereo not given)	inactive: 27.8%
CN/C(N)=N/[N+](=O)[O-]	inactive: -11.8%
[C-]#[O+].[Co].[c-]1[c-][c-][cH-][c-]1.c1ccc([PH+](c2ccccc2)c2ccccc2)cc1	inactive: 12.8%
COC(=O)C(C)(C)C(OP(C)(=O)OC)=C(C)C (stereo not given)	inactive: 13.1%
O=[N+]([O-])c1cc([N+](=O)[O-])cc([N+](=O)[O-])c1.c1ccc(CCc2cccc3c2ccc2ccccc23)cc1	inactive: 48.6%
O=[N+]([O-])c1cc([N+](=O)[O-])c(NNc2c([N+](=O)[O-])cc([N+](=O)[O-])cc2[N+](=O)[O-])c([N+](=O)[O-])c1	active: 97.2%
CCOC(=O)C(CCSC)Nc1nc2ccccc2o1.O=[N+]([O-])c1cc([N+](=O)[O-])c(O)c([N+](=O)[O-])c1 (stereo not given)	inactive: 29.1%
O=[N+]([O-])C(F)(CCNCC(F)([N+](=O)[O-])[N+](=O)[O-])[N+](=O)[O-]	active: 91.3%
CC1CN1.O=[N+]([O-])c1cc([N+](=O)[O-])c(S(=O)(=O)O)c([N+](=O)[O-])c1	inactive: 27.7%
CCC([N+](=O)[O-])[N+](=O)[O-]	inactive: 5.35% and inactive: -6.55%

Structure (SMILES)	growth inhibition
COc1ccc2c3c1OC1C4(OC)C=CC5(CC4C(C)=O)[C@@H](C2)N(C)CC[C@]315 (stereo not given in full)	inactive: -22.2%
NCc1ccccc1.O=[N+]([O-])c1cc([N+](=O)[O-])c(O)c([N+](=O)[O-])c1	inactive: 4.5%
COc1c([N+](=O)[O-])cc(Cc2cc([N+](=O)[O-])c(OC)c([N+](=O)[O-])c2)cc1[N+](=O)[O-]	inactive: -0.4%
C/C=C/Sc1ccccn1.O=[N+]([O-])c1cc([N+](=O)[O-])c(O)c([N+](=O)[O-])c1	inactive: -3.55%
O=[N+]([O-])c1cc([N+](=O)[O-])c(O)c([N+](=O)[O-])c1.SCCCc1cccnc1	inactive: 1.2%
Br.C[N+]12CCCN(CC1)CC2.O=[N+]([O-])c1cc([N+](=O)[O-])c(O)c([N+](=O)[O-])c1.[Br-]	inactive: -3.7%
CCOP(=O)(O)CC.[Eu]	inactive: -17.6%
OCCSCCO	inactive: 1.35%
CCN(CC)CCOC(=O)C(O)(c1ccccc1)c1ccc(OC)cc1 (stereo not given)	inactive: 0.65%
Cc1cc(N(CCCl)CCCl)ccc1C1OCCO1.[C-]#[O+].[C-]#[O+].[C-]#[O+].[Cr]	inactive: 8.6%
CCCCOP(=S)(S)OCCCC.[Hg]	inactive: 17.8%
O=C(CCN1CCCC(O)C1COC(=O)C(O)(c1ccccc1)c1ccccc1)NCc1ccccc1 (stereo not given)	inactive: -24.8%
CC(C)OP(C)(=O)O.[Tm]	inactive: 2.15%
CCN(CC)CCCN.O=[N+]([O-])c1cc([N+](=O)[O-])c(O)c([N+](=O)[O-])c1	inactive: 18.6%
O=[N+]([O-])c1cc([N+](=O)[O-])c(O)c([N+](=O)[O-])c1.c1ccc(C2CNCCN2)cc1	inactive: 1.6%
C=C1C(=O)C2CCN1CC2.O=[N+]([O-])c1cc([N+](=O)[O-])c(O)c([N+](=O)[O-])c1	inactive: 17.2%
CC(CO)NC1CCCC1.O=[N+]([O-])c1cc([N+](=O)[O-])c(O)c([N+](=O)[O-])c1	inactive: -8.5%
